Compound activity from PubChem BioAssay.
miR-21 reporter: miR-21 reporter, rising signal. HeLa miR-21 FLuc reporter, luciferase, 48 h. Potency, µM (highest dose often 38.3 µM). 340,000 tested, under 10 active. AID 2288; active = well fitted rising curve with a large enough effect; inconclusive = small, poorly fitted or top-dose-only effect; inactive = no such curve, though single readings can be large or run the other way;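 further: miR-21 action dims this reporter so a rising signal means less miR-21 action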
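HeLa cells endogenously expressing miR-21, stably carrying CMV-driven firefly luciferase with a downstream miR-21 binding site, 2000 cells/well. Titrations up to approximately 40 uM, 48 hours; luciferase luminescence read.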
TDP1 cell CPT: growth inhibition of DT40 Tdp1-/-;hTDP1 cells with camptothecin (screen for TDP1 inhibitors); actives 12% (n = 420,000); Potency, µM (top dose mostly 46.2 µM), most hits filed as inhibitors; chicken DT40 Tdp1-/-;hTDP1 cells + 20 nM CPT, ATP luminescence, 48 h; further: nearly all actives have a fitted effect of over 55% in size
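Cell growth measured by CellTiter-Glo luminescence after a minimum 48 h, 37 C compound exposure with 20 nM CPT in Tdp1-knockout DT40 cells stably expressing hTDP1, seeded 400/well; qHTS titration format.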
uPA generation: blocks generation of uPA at the cell surface | cell surface uPA generation assay, qHTS | Potency, µM (highest dose often 38.3 µM), hits mostly inhibitors | actives 0.31% (n = 330,000) | AID 540303; active means well fitted inhibition curve with a large enough effect; inconclusive means small, poorly fitted or top-dose-only effect; inactive means no such curve, though single readings can be large or run the other way; tested in mouse RAW 264.7 cells; further: nearly all actives have a fitted effect of over 55% in size
TDP1 cell noCPT: qHTS for Inhibitors of human tyrosyl-DNA phosphodiesterase 1 (TDP1): qHTS in cells in absence of CPT; AID 686978, 2013; DT40 Tdp1-/- hTDP1 cells, no CPT, ATP luminescence, 48 h; Potency, µM (series often up to 46.2 µM), most hits filed as inhibitors; actives 15% (n = 420,000); further: nearly all actives have a fitted effect of over 55% in size
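Chicken DT40 Tdp1-/- cells stably complemented with human TDP1 were seeded at 400 cells/well with DMSO in place of 20 nM camptothecin. After compound pinning, cells grew at least 48 hr at 37 °C; viability read by CellTiter-Glo luminescence.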
TDP1 block: TDP1 (human) enzyme inhibition. Potency, µM (highest dose often 130 µM), actives largely listed as inhibitors. Q9NUW8. recombinant TDP1, AlphaScreen DNA substrate cleavage. actives 0.28% (n = 350,000). AID 485290; further: nearly all actives have a fitted effect of over 40% in size
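Compounds were preincubated with Tdp1 (1 nM final) for 15 min at room temperature before substrate (15 nM final) started a 5 min reaction; beads (10 ug/ml final) were then added for 10 min before AlphaScreen detection.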
A number is an active result; - = inactive; ? = inconclusive; . = no result given. Hits are enriched below; roughly 16% of the tested compounds scored in any of these assays. Unless noted, the call rests on the fitted dose curve; in most records, active means well fitted curve in the direction sought with a large enough effect; inconclusive means small, poorly fitted or top-dose-only effect, or another doubt; inactive means no such curve, though single readings can be large; an effect the other way counts as inactive or inconclusive.

SMILES	miR-21 reporter	TDP1 cell CPT	uPA generation	TDP1 cell noCPT	TDP1 block
COc1ccc(S(=O)(=O)N2CCOC2CNC(=O)C(=O)NCc2ccccc2Cl)cc1 (stereo not given)	-	?	-	?	-
O=C1[C@H]2[C@@H]3CCN1CCC[C@@H]2C=C[C@@H]3c1ccc(Br)cc1	.	?	.	18µM	.
O=C1C2C3C=CC(CC3)C2C(=O)N1c1ccc(Br)cc1[N+](=O)[O-] (stereo not given)	-	-	-	-	.
COc1ccc(CC(=O)NCCN2CCOCC2)cc1	-	-	-	-	.
CCc1ccc(NC(=O)c2cc(C)no2)cc1	-	-	-	-	.
COc1ccc2c(C=Nc3c(C)n(C)n(-c4ccccc4)c3=O)c(O)n(Cc3ccco3)c(=O)c2c1	-	18µM	-	?	-
O=C(N/N=C/c1c(O)n(-c2ccccc2Cl)c(=O)c2ccccc12)c1cccnc1	-	?	-	-	-
COc1ccc(Cn2c(O)c(C=Nc3ccccc3C(=O)O)c3ccccc3c2=O)cc1	-	15µM	-	10µM	-
O=C(N/N=C/c1c(O)n(Cc2ccccc2)c(=O)c2ccccc12)c1cccnc1	-	?	-	9.2µM	-
COc1ccccc1NS(=O)(=O)c1cccc(-n2c(O)c(C=Nc3ccccc3C(=O)O)c3ccccc3c2=O)c1	-	?	-	13µM	-
Cc1c(N=Cc2ccco2)c(=O)n(-c2ccccc2)n1C	-	-	-	-	-
CCCC/C=C/[C@@H](c1ccccc1)C1COC(=O)CC1O (stereo not given in full)	.	.	.	.	-
CCC(=O)N1CCc2cc(S(=O)(=O)NC(C(=O)NCCc3cccc(C)c3)C(C)C)ccc21 (stereo not given)	-	-	.	-	-
COc1ccc(Cn2c(O)c(/C=N/NC(=O)c3cccnc3)c3ccccc3c2=O)cc1	-	15µM	-	23µM	-
O=C(N/N=C/c1cn(Cc2ccccc2)c2ccccc12)c1cccnc1	-	?	-	?	-
COc1ccc(N2CC(C(=O)N3CCOCC3)CC2=O)cc1 (stereo not given)	-	-	-	-	.
O=C(CSc1nccn1-c1ccccc1)N1CCc2ccccc21	-	-	-	-	-
Cn1c(SCC(=O)N2CCCc3ccccc32)nc2cccnc21	-	?	-	?	-
O=C(CSc1nccn1-c1ccc(Cl)cc1)N1CCCc2ccccc21	-	?	-	15µM	-
CCn1c(SCC(=O)N2CCCc3ccccc32)nc2ccccc2c1=O	-	?	-	15µM	-
O=C(CSc1nc2ccccc2c(=O)n1-c1ccccc1)N1CCCc2ccccc21	-	-	-	?	-
Cn1c(SCC(=O)N2CCc3ccccc32)nc2cccnc21	-	16µM	-	21µM	-
CCn1c(SCC(=O)N2CCCc3ccccc32)nc2cccnc21	-	?	-	18µM	-
CC(C)Cn1c(SCC(=O)N2CCCc3ccccc32)nc2ccccc2c1=O	-	16µM	-	18µM	.
COCCCn1c(=O)c2ccccc2n(CC(=O)N2CCCc3ccccc32)c1=O	-	26µM	-	?	-
SMILES	miR-21 reporter	TDP1 cell CPT	uPA generation	TDP1 cell noCPT	TDP1 block
CC(C)OCCCn1c(SCC(=O)N2CCc3ccccc32)nc2ccccc2c1=O	-	?	-	12µM	-
CNc1nc2c(N)ncnc2n1[C@@H]1O[C@@H]2COP(=O)(O)O[C@H]2[C@H]1O	.	.	.	.	-
COc1ccc2[nH]c(=O)c3c(c2c1)OC(C)(C)C=C3	?	15µM	-	15µM	-
Cc1cc2c([nH]c3ccccc32)c2c1OC(C)(C)C=C2	-	?	-	?	.
COc1ccc(NC(=O)c2ccc(S(=O)(=O)N3CCCCC3)cc2)cc1OC	.	?	-	?	-
COc1ccc(NC(=O)Cc2ccc(C)c(C)c2)cc1S(=O)(=O)N1CCCCC1	.	?	-	?	-
COc1cc(C(C)=O)ccc1OCC(=O)Nc1ccc(S(=O)(=O)N2CCCCC2)cc1	.	-	.	0.46µM	.
COc1ccc(NC(=O)CCCNC(=O)c2ccc(Cl)cc2)cc1S(=O)(=O)N1CCCCC1	.	?	-	21µM	.
COc1cc(/C=C/C(=O)OCC(=O)Nc2ccc(C)c(S(=O)(=O)N3CCCCC3)c2)ccc1O	-	?	-	26µM	-
COc1cc(C(C)=O)ccc1OCC(=O)Nc1ccc(C)c(S(=O)(=O)N2CCCCCC2)c1	.	8.2µM	-	16µM	-
C(=C1C=c2ccccc2=C1)c1ccc(N=Nc2ccc(C=C3C=c4ccccc4=C3)cc2)cc1	.	-	.	-	.
Cn1ncc(Br)c1C(=O)NC(=S)N1CCN(c2ccccn2)CC1	-	?	-	?	-
Cc1cc(O)c2c(c1)CC1C3CCC4CC(=O)CCC4(C)C3CC(=O)C21C (stereo not given)	.	18µM	-	12µM	.
Cc1ccc2oc3c(c(=O)c2c1)C(c1ccccc1F)N(CCCN1CCOCC1)C3=O (stereo not given)	-	?	.	18µM	-
O=C1c2oc3ccc(F)cc3c(=O)c2C(c2ccc(F)cc2)N1CCCN1CCOCC1 (stereo not given)	.	-	-	-	.
O=C1c2oc3ccc(Cl)cc3c(=O)c2C(c2ccccn2)N1CCCN1CCOCC1 (stereo not given)	-	23µM	?	29µM	-
CC(C)Oc1ccc(C2c3c(oc4ccccc4c3=O)C(=O)N2CCCN2CCOCC2)cc1 (stereo not given)	-	26µM	-	?	-
CC(C)c1ccc(C2c3c(oc4ccc(Cl)cc4c3=O)C(=O)N2CCCN2CCOCC2)cc1 (stereo not given)	-	18µM	.	?	-
COc1ccc(NS(=O)(=O)c2cccc(C(=O)NNC(=O)c3ccc(O)c(Cl)c3)c2)cc1	.	-	-	-	-
CC(C)CNC(=O)COC(=O)c1c2c(nc3ccccc13)/C(=C/c1cccs1)CC2	-	?	-	26µM	.
CCCCNC(=O)COC(=O)c1c2c(nc3ccccc13)/C(=C\c1cccs1)CC2	.	?	-	?	.
CCN1C/C(=C/c2cccs2)c2nc3ccccc3c(C(=O)O)c2C1	-	-	-	-	-
NC(=O)c1ccc(NC(=O)COC(=O)c2c3c(nc4ccccc24)/C(=C\c2cccs2)CCC3)cc1	?	?	-	21µM	-
CCCC(=O)O[C@H]1C[C@@H](C)N(C(=O)c2ccccc2)c2ccc(C)cc21	-	-	-	?	-
CCCC(=O)N1c2ccccc2C(N(C(C)=O)c2ccccc2)CC1C (stereo not given)	-	23µM	-	?	-
Cc1ccc(C(=O)N(c2ccccc2)C2CC(C)N(C(=O)c3ccco3)c3ccccc32)cc1 (stereo not given)	-	7.3µM	-	4.6µM	-
